Experiment [1] concerns the target T1, His-tagged DNA primase PriS-PriL(1–210) from Pyrococcus abyssi (Pyrococcus abyssi, UniProt Q9V292 1-345; Q9V291 1-210).
T1 construct: DNA primase small subunit PriS, Pyrococcus abyssi; open reading frame optimized and synthesized; DNA primase large subunit PriL, Pyrococcus abyssi, residues 1-210; The methods give a His14 tag on PriS; also called His6-tagged primase; immobilized primase; source: E. coli BL21-CodonPlus (DE3)-RIPL, polycistronic construct, purified (heat step, HisTrap, heparin, size exclusion); not shown: His14, …
T1 sequence (looked up) 1: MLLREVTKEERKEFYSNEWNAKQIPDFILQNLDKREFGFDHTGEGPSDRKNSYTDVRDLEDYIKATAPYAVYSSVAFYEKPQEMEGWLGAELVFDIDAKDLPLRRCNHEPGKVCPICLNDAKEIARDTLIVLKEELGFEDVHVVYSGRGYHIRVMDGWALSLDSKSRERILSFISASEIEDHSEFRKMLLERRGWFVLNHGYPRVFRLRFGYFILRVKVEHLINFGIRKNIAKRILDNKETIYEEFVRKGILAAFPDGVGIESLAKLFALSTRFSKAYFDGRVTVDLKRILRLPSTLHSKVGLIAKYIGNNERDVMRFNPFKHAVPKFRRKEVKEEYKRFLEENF
T1 sequence (looked up) 2: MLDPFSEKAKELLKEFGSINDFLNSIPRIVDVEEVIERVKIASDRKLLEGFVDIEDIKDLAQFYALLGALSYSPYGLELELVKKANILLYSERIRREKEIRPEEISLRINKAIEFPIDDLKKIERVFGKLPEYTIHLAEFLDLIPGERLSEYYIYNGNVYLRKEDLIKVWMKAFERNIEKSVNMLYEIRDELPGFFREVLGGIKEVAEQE
Put plainly: SPR; Biacore T200; ~2000 RU His-tagged PCNA and PriS-PriL(1–210) on an NTA chip, His-tagged MBP as reference; cPIP peptide 0-200 µM, 30 s at 30 µL/min, 25 °C, buffer E with 100 µM EDTA; steady-state fit. The note with it: both partners purified. In general terms: Surface plasmon resonance follows binding to a sensor surface in real time, without labels.

Experiment [2] deals with T2, DNA primase PriS-PriL(1–210) from Pyrococcus abyssi (Pyrococcus abyssi, UniProt Q9V292 1-345; Q9V291 1-210).
T2 construct: DNA primase small subunit PriS, Pyrococcus abyssi; open reading frame optimized and synthesized; DNA primase large subunit PriL, Pyrococcus abyssi, residues 1-210; Analyte in BLI; source: E. coli BL21-CodonPlus (DE3)-RIPL, polycistronic construct, purified (heat step, HisTrap, heparin, size exclusion)
T2 sequence (looked up) 1: T1 sequence (looked up) 1
T2 sequence (looked up) 2: T1 sequence (looked up) 2
Put plainly: BLI; Octet RED384; His-MBP-fused DP2 constructs captured on Ni-NTA biosensors (1.5 nm); PCNA or PriS-PriL(1–210) 31.25-2000 nM, 300 s, 25 °C, buffer E (20 mM Na-Hepes pH 8, 0.15 M NaCl) with 0.2 mg/mL BSA; steady-state fit. The conditions noted are these: both partners purified.

B1: cPIP peptide (12 amino-acid peptide mimicking the DP2 C-terminal PIP-box) (peptide)
peptide: KKRVISLEEFFS
notes: C-terminal PIP-box (cPIP) of PolD DP2, Pyrococcus abyssi; limits worked out from the printed residues V1258, I1259, L1261, F1264; also called canonical PIP-box; source: synthetic peptide (Smart Bioscience)
In experiment [1], B1 gave a Kd of 4000 ± 1000 nM.

B2: MBP–iPIP-cPIP fusion (DP2:1196–1270) (domain or fragment, Pyrococcus abyssi, UniProt Q9V2F4 1381-1455, looked up)
chain: ETQLTLIVNPNDICQRLVMARTGEVNKSGLLENLSNGSKKTEKAEKAEKPRKKSDEKPKKKRVISLEEFFSRKSK
notes: C-terminal region of PolD DP2, Pyrococcus abyssi, residues 1196-1270, holding iPIP and cPIP; pIVEX His-MBP-TEV plasmid; TEV-cleavable N-terminal His6-MBP tag, kept for capture on Ni-NTA biosensors; also called His-MBP-fused DP2 construct; source: E. coli BL21-CodonPlus (DE3)-RIPL, purified (HisTrap, heparin, size exclusion; no heat step); not shown: His6, N-terminal, kept; MBP, N-terminal, kept
On to B2, for which the dissociation constant (Kd) in experiment [2] was found to be 237 ± 22 nM.

The Kd is the free concentration of one partner at which half of the binding sites on the other are occupied at equilibrium, for simple one-to-one binding. A low value points to higher affinity.

These data come from publication PMC7101311, “Structural basis for the increased processivity of D-family DNA polymerases in complex with PCNA” (Nature Communications, 2020).
